# Yeast mating assay B: variants of the scFv Ab-14

Reference: Li et al. 2023, doi:10.1038/s41467-023-39022-2. File: FLAb, binding data.

Target: peptide PDVDLGDISGINAS, taken from heptad repeat 2 (HR2) of SARS-CoV-2 spike.

Parent: Ab-14, a human scFv built as VH, a 15-residue (Gly4Ser)3 linker, VL. Only the CDRs of the heavy chain vary.
VH: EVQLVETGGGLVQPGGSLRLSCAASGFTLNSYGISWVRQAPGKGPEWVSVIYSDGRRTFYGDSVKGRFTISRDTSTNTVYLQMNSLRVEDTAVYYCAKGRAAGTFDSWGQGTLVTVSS
VL: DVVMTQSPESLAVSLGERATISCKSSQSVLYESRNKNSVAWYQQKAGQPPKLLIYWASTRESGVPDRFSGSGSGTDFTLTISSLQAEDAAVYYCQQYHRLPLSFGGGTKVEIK

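The parent was found by panning a naive human phage display library on the peptide. The variants were designed computationally from a first round of random CDR variants and then made and measured. Their group label is 14H_GP_HC (GP: Gaussian process model; HC: hill climbing; a sequence that several methods proposed may carry one label only). AlphaSeq pools MATa yeast showing the antibodies with MATalpha yeast showing the peptide. The frequency of each diploid, read from paired DNA barcodes, reflects how well the two displayed proteins bind. A regression on co-assayed BCL2-family reference pairs converts the normalised counts of each replicate to an apparent Kd. There are six technical replicates.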

The parent's heavy chain CDRs are GFTLNSYGIS, VIYSDGRRTFYGDSVK, GRAAGTFDS; each variant's own CDRs replace them letter for letter. Values are log10 of the apparent Kd in nM; lower means stronger binding. A mean of the replicates is given; it leaves out those without a signal. Where no diploid with the target was found in that replicate, the entry reads "ND": below detection, most likely a poor binder, though not proof of it. Of ten entries with the parent sequence, four were seen in most replicates (averages 0.34 to 2.37), three in one and three in none, so single entries are noisy. In the paper, a design with two or fewer of six values counts as a poor binder. Values of this round are not directly comparable with the first-round values of the same sequences. As a blank, each scFv also met three strains without target: over all heavy chain designs, 1% of these pairings were detected, typically at 2.08 and seldom below 0.84. For each scFv, signals with the empty controls are counted beside the result, with their mean in brackets.

CDR-H1 | CDR-H2 | CDR-H3 | replicates, log10 nM | log10 Kd (nM), mean | control signals
GFTLNEYGIS | VIYSDGRRTFYTDSVK | GSAAGTFDL | 0.09 / -0.35 / 0.14 / 0.26 / -0.05 / 0.42 | 0.09 | 0 of 18
GFTLNSYGIS | VIYSDGRRTFYSDSVK | GQLAGSFDT | ND / ND / ND / ND / ND / ND | ND | 0 of 18
GFTLNEYGIS | VIYSDGQRTFYGDSVK | GRAAGTFIS | ND / ND / ND / ND / ND / ND | ND | 0 of 18
GFTLKSYGIS | VIYADGRRTFYGDSVK | GRAAGTYDS | ND / 2.48 / 2.05 / 2.51 / 2.17 / ND | 2.30 | 1 of 18 (2.73)
GFQLNEYGIS | VIYSDGRRTFYGDSVK | GRAGGTFIS | ND / ND / ND / ND / ND / ND | ND | 0 of 18
GFSLNQYGIS | VIYSDGRRTFYSDSVK | GRLAGTFDT | 0.41 / 1.33 / 0.16 / -0.44 / 0.03 / ND | 0.30 | 0 of 18
GFSLNSYGIS | VIYADGRRTFYGDRVK | GRAAGTFKS | ND / ND / ND / ND / ND / ND | ND | 1 of 18 (2.58)
GFSLNSYGIS | VIYSDGRRTFYDDSVK | GWLAGTFDS | 0.31 / 0.08 / 0.41 / 0.25 / 0.26 / 0.60 | 0.32 | 0 of 18
GFTLESYGIS | VIYSDGRRTFYSDSVK | GRAMGTFDS | ND / ND / ND / ND / ND / ND | ND | 1 of 18 (1.90)
GFDLNSYGIS | VIYSDGRRTFYGDSVK | GRQAGRFIS | ND / ND / ND / ND / ND / ND | ND | 0 of 18
GFELNEYGIS | VIYSDGRRTFYGDSVK | GRMAGTFDG | 1.71 / 0.89 / 0.63 / 0.76 / 1.28 / 1.33 | 1.10 | 0 of 18
GFTLNDYGIS | VIYSDGRRTFYGDSVK | GRQAGTFII | ND / ND / ND / ND / ND / ND | ND | 0 of 18
KFTLNSYGIS | VIYSDGRRTFYIDSVK | GQTAGTFDS | -0.05 / 0.79 / -0.18 / -0.01 / 0.81 / 0.27 | 0.27 | 0 of 18
GFSLNSYGIS | VIYSDGRRTFYEDSVK | GQLAGTFDS | 1.02 / 0.75 / 0.73 / 1.67 / 0.81 / 0.98 | 0.99 | 1 of 18 (2.23)
GFTLNEYGIS | VIYSDGMRTFYGDSVK | GRQAGTFIS | ND / ND / ND / 1.14 / ND / 1.27 | 1.20 | 0 of 18
GFNLNSYGIS | VIYSDGLRTFYADSVK | GRAAGTFDS | 0.70 / 0.50 / 0.69 / 0.06 / 0.09 / 0.35 | 0.40 | 0 of 18
GFTLNEYGIS | VIYSDGRRTFYKDSVK | GRAAGTFDK | ND / 1.15 / ND / ND / ND / ND | 1.15 | 0 of 18
GFTLDSYGIS | VIYSDGRRTFYGDSVK | GRQAGTFDV | ND / 0.76 / 1.17 / 1.03 / 1.25 / ND | 1.05 | 0 of 18
GFTLNSYGIS | VIYSDGRRTFYQDSVK | GLLAGTFDS | ND / 1.00 / 1.71 / 1.60 / 1.18 / 1.05 | 1.31 | 0 of 18
GFTLNEYGIS | VIYSDGRRTFYTDSVK | GVSAGTFDS | 0.92 / 1.09 / 1.44 / 0.22 / 0.18 / 0.48 | 0.72 | 0 of 18
GFSLYEYGIS | VIYSDGRRTFYGDSVK | GRAAGTFDQ | 2.02 / 0.84 / 0.74 / 0.76 / 1.18 / 1.19 | 1.12 | 1 of 18 (2.03)
GFSLNEYGIS | VIYSDGRRTQYDDSVK | GRAAGTFDS | ND / ND / ND / ND / 1.09 / 2.05 | 1.57 | 0 of 18
GFDLNSYGIS | VIYSDGRRTFYGDSVK | GRAAAIFDS | ND / ND / ND / ND / ND / ND | ND | 0 of 18
GFQLNDYGIS | VIYSDGRRTFYIDWVK | GKAAGTFDS | ND / ND / ND / ND / ND / ND | ND | 0 of 18
GFDLNSYGIS | VIYSDGRRTFYGDSVK | GRAAAIYDS | ND / ND / ND / ND / ND / ND | ND | 0 of 18
GFQLNSYGIS | VIYSDGRRTVYGDSVK | GRLAGTFDS | ND / ND / ND / ND / ND / ND | ND | 0 of 18
GFTLNSYGIS | VIYSDGKRTFYIDSVK | GRIAGTFDS | ND / 2.01 / ND / ND / ND / ND | 2.01 | 0 of 18
GFTLNSYGIS | VIYSDGRRTFYGDSVK | GMEAGTFDS | 1.51 / 1.10 / 0.97 / 0.91 / 0.92 / 1.03 | 1.07 | 1 of 18 (1.35)
GFTLNSYGIS | VIYSDGRRTQYIDSVK | GNAAGTFDS | ND / 2.09 / ND / 3.63 / 2.26 / 1.32 | 2.33 | 1 of 18 (1.41)
GNTLNEYGIS | VIYSDGRRTFYGDSVK | GRMAGTFDI | ND / ND / ND / 1.77 / ND / ND | 1.77 | 1 of 18 (2.21)
GFLLNDYGIS | VIYSDGRRTFYGDSVK | GTAAGTFDS | 0.54 / 1.27 / 0.96 / 0.74 / 0.13 / 0.58 | 0.70 | 0 of 18
GFTLNDYGIS | VIYSDGRRTFYGDSVK | GRAAGTFED | 1.53 / 1.38 / 1.01 / 1.52 / 0.85 / 1.29 | 1.26 | 0 of 18
GFTLNNYGIS | VIYSDGRRTFYSDSVK | GRQAGTFDS | ND / ND / ND / ND / ND / ND | ND | 0 of 18
GFTLNEYGIS | VIYSDGRRTFYCDSVK | GPAAGTFDL | ND / ND / ND / ND / ND / ND | ND | 0 of 18
GFELNEYGIS | VIYSDGRRTFYGDSVK | GRAAVTFDL | ND / ND / ND / ND / ND / ND | ND | 0 of 18
GFTLNSYGIS | VIYSDGRRTFYSDSVK | GMAVGTFDS | ND / 3.22 / ND / ND / ND / ND | 3.22 | 1 of 18 (1.98)
GFGLNEYGIS | VIYSDGRRTFYDDSVK | GRAAGTFDS | 0.56 / 1.04 / 0.24 / 0.79 / 1.12 / 1.01 | 0.79 | 0 of 18

The closing 2 entries, repeated:

CDR-H1,CDR-H2,CDR-H3,"replicates, log10 nM","log10 Kd (nM), mean",control signals
GFTLNSYGIS,VIYSDGRRTFYSDSVK,GMAVGTFDS,ND / 3.22 / ND / ND / ND / ND,3.22,1 of 18 (1.98)
GFGLNEYGIS,VIYSDGRRTFYDDSVK,GRAAGTFDS,0.56 / 1.04 / 0.24 / 0.79 / 1.12 / 1.01,0.79,0 of 18